In the experiment the target is GST-fused recombinant ARHGAP25 (human) (UniProt P42331). The experiment is described as follows: affinity purification with mass spectrometry; GST-ARHGAP25 on glutathione agarose beads incubated with neutrophil lysate loaded beforehand with GTPγS or GDPβS (15 mM EDTA, 15 min, RT; stopped with 60 mM MgCl2), 45 min, 4 °C; LFQ values of the two loadings compared.

As for “RAC2 (from UniProt P15153 1-192) (natural protein)”, the log2ΔFC of LFQ values, GTPγS-loaded against GDPβS-loaded lysate worked out at 0.785.

The record behind these values is publication PMC11362597.
